target: GST-Bcl-2 (Homo sapiens, UniProt P10415); assay: TR-FRET binding assay, GST-Bcl-2 with F-Bak peptide probe; conditions: TR-FRET; Bcl-XL Ki divided by Bcl-2 Ki
Procedure: Tb-anti-GST antibody was purchased from Invitrogen (Catalog No. PV4216).
Representative compounds were serially diluted in dimethyl sulfoxide (DMSO) starting at 50 μM (2× starting concentration; 10% DMSO) and 10 μL were transferred into a 384-well plate.
The samples were then mixed on a shaker for 1 minute and incubated for an additional 3 hours at room temperature. For each assay, the probe/antibody and protein/probe/antibody were included on each assay plate as negative and positive controls, respectively. Fluorescence was measured on the ENVISION plate reader (Perkin Elmer) using a 340/35 nm excitation filter and 520/525 (F-Bak peptide) and 495/510 nm (Tb-labeled […] antibody) emission filters.
The inhibition constant (Ki) is the dissociation constant of an enzyme-inhibitor complex or a protein/small molecule complex, wherein the small molecule is inhibiting binding of one protein to another protein or peptide. […] Inhibition constants were determined using Wang's equation (Wang Z-X., An Exact Mathematical Expression For Describing Competitive Binding Of Two Different Ligands To A Protein Molecule. FEBS Lett. 1995, 360:111-4).

By UniProt entry, the sequences of proteins in these tests, tags left out.
UniProt P10415, whole entry: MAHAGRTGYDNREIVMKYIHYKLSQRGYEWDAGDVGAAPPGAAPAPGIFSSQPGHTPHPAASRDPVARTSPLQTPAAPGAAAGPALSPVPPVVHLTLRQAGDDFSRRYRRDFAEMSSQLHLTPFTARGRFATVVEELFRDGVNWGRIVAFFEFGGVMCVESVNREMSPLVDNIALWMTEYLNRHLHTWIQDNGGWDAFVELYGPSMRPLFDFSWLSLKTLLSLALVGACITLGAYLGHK

Row | Structure (SMILES) | Binding selectivity ratio (Bcl-XL Ki/Bcl-2 Ki)
1 | CC1(C)CCC(CN2CCN(c3ccc(C(=O)NS(=O)(=O)c4ccc(NC5CCN(C6CC6)CC5)c([N+](=O)[O-])c4)c(Oc4cccc5[nH]ncc45)c3)CC2)=C(c2ccc(Cl)cc2)C1 [Example 436, 4-(4-{[2-(4-chlorophenyl)-4,4-dimethylcyclohex-1-en-1-yl]methyl}piperazin-1-yl)-N-({4-[(1-cyclopropylpiperidin-4-yl)amino]-3-nitrophenyl}sulfonyl)-2-(1H-indazol-4-yloxy)benzamide] | 590.9
2 | CC1(C)CCC(CN2CCN(c3ccc(C(=O)NS(=O)(=O)c4ccc(OCC5COCCO5)c([N+](=O)[O-])c4)c(Oc4cccc5[nH]ncc45)c3)CC2)=C(c2ccc(Cl)cc2)C1 (stereo not drawn) [Example 447, 4-(4-{[2-(4-chlorophenyl)-4,4-dimethylcyclohex-1-en-1-yl]methyl}piperazin-1-yl)-N-{[4-(1,4-dioxan-2-ylmethoxy)-3-nitrophenyl]sulfonyl}-2-(1H-indazol-4-yloxy)benzamide] | 2373.1
3 | CN1CCC(CNc2ccc(S(=O)(=O)NC(=O)c3ccc(N4CCN(CC5=C(c6ccc(Cl)cc6)CC(C)(C)CC5)CC4)cc3Oc3cccc4[nH]cnc34)cc2[N+](=O)[O-])CC1 [Example 454, 2-(1H-benzimidazol-4-yloxy)-4-(4-{[2-(4-chlorophenyl)-4,4-dimethylcyclohex-1-en-1-yl]methyl}piperazin-1-yl)-N-[(4-{[(1-methylpiperidin-4-yl)methyl]amino}-3-nitrophenyl)sulfonyl]benzamide] | 735.2
4 | CC1(C)CCC(CN2CCN(c3ccc(C(=O)NS(=O)(=O)c4ccc(NC[C@H]5CC[C@H](C#N)CC5)c([N+](=O)[O-])c4)c(Oc4cccc5[nH]cnc45)c3)CC2)=C(c2ccc(Cl)cc2)C1 [Example 462, Trans-2-(1H-benzimidazol-4-yloxy)-4-(4-{[2-(4-chlorophenyl)-4,4-dimethylcyclohex-1-en-1-yl]methyl}piperazin-1-yl)-N-[(4-{[(4-cyanocyclohexyl)methyl]amino}-3-nitrophenyl)sulfonyl]benzamide] | 710.8

same assay, conditions: ratio of TR-FRET Ki values, Bcl-XL over Bcl-2

Row | Structure (SMILES) | Binding selectivity ratio (Bcl-XL Ki/Bcl-2 Ki)
5 | CC1(C)CCC(CN2CCN(c3ccc(C(=O)NS(=O)(=O)c4cnc(OCC5(F)CCOCC5)c(C#N)c4)c(Oc4cccc5[nH]ncc45)c3)CC2)=C(c2ccc(Cl)cc2)C1 [Example 406, 4-(4-{[2-(4-chlorophenyl)-4,4-dimethylcyclohex-1-en-1-yl]methyl}piperazin-1-yl)-N-({5-cyano-6-[(4-fluorotetrahydro-2H-pyran-4-yl)methoxy]pyridin-3-yl}sulfonyl)-2-(1H-indazol-4-yloxy)benzamide] | 1263.8
6 | CC1(C)CCC(CN2CCN(c3ccc(C(=O)NS(=O)(=O)c4cnc(OCC5(F)CCOCC5)c(C(F)(F)F)c4)c(Oc4cccc5[nH]ncc45)c3)CC2)=C(c2ccc(Cl)cc2)C1 [Example 410, 4-(4-{[2-(4-chlorophenyl)-4,4-dimethylcyclohex-1-en-1-yl]methyl}piperazin-1-yl)-N-{[6-[(4-fluorotetrahydro-2H-pyran-4-yl)methoxy]-5-(trifluoromethyl)pyridin-3-yl]sulfonyl}-2-(1H-indazol-4-yloxy)benzamide] | 1838.6
7 | CO[C@H]1CC[C@H](COc2ncc(S(=O)(=O)NC(=O)c3ccc(N4CCN(CC5=C(c6ccc(Cl)cc6)CC(C)(C)CC5)CC4)cc3Oc3cccc4[nH]ncc34)cc2Cl)CC1 [Example 414, Trans-N-({5-chloro-6-[(4-methoxycyclohexyl)methoxy]pyridin-3-yl}sulfonyl)-4-(4-{[2-(4-chlorophenyl)-4,4-dimethylcyclohex-1-en-1-yl]methyl}piperazin-1-yl)-2-(1H-indazol-4-yloxy)benzamide] | 13930.5
8 | CC1(C)CCC(CN2CCN(c3ccc(C(=O)NS(=O)(=O)c4cnc(OCC5(F)CCOCC5)c(F)c4)c(Oc4cccc5[nH]ncc45)c3)CC2)=C(c2ccc(Cl)cc2)C1 [Example 416, 4-(4-{[2-(4-chlorophenyl)-4,4-dimethylcyclohex-1-en-1-yl]methyl}piperazin-1-yl)-N-({5-fluoro-6-[(4-fluorotetrahydro-2H-pyran-4-yl)methoxy]pyridin-3-yl}sulfonyl)-2-(1H-indazol-4-yloxy)benzamide] | 2569.0
9 | CC1(C)CCC(CN2CCN(c3ccc(C(=O)NS(=O)(=O)c4ccc(N[C@@H]5CCN(C(CF)CF)C5)c([N+](=O)[O-])c4)c(Oc4cccc5[nH]ncc45)c3)CC2)=C(c2ccc(Cl)cc2)C1 [Example 435, 4-(4-{[2-(4-chlorophenyl)-4,4-dimethylcyclohex-1-en-1-yl]methyl}piperazin-1-yl)-N-{[4-({(3R)-1-[2-fluoro-1-(fluoromethyl)ethyl]pyrrolidin-3-yl}amino)-3-nitrophenyl]sulfonyl}-2-(1H-indazol-4-yloxy)benzamide] | 1935.1

Reference: patent US9073855B2, “BCL-2 selective apoptosis-inducing agents for the treatment of cancer and immune diseases” (AbbVie Inc., priority 2008, dated 2015)
